“And” between values parts separate entries of the source, which are not always exact repeats. Equal values may be shown once.
What was measured:
[1] = biological target: Kappa-type opioid receptor (Homo sapiens, UniProt P41145); assay: Inhibition of Opioid receptor kappa 1 as reduced contraction in electrically stimulated rabbit vas deferens
[2] = Partition coefficient (logD); conditions: octanol/water
[3] = Partition coefficient (logP); conditions: octanol/water
Mus musculus [4] = species: Mus musculus; assay: Compound was evaluated for antinociceptive activity using phenylbenzylquinone induced writhing assay in mouse.
Mu-type opioid receptor = Mu-type opioid receptor (Rattus norvegicus, UniProt P33535); assay: Compound was evaluated for the inhibition of binding of [3H]DAGO to rat brain mu opioid receptor
[5] = biological target: Kappa-type opioid receptor (Rattus norvegicus, UniProt P34975); assay: Compound was evaluated for the inhibition of binding of [3H]U-69593 to cloned rat Opioid receptor kappa 1 expressed in CHO cell line
Mus musculus [6] = species: Mus musculus; assay: Compound was tested in mouse for sedation using a rotarod assay.

By UniProt entry, the sequences of proteins in these tests, tags left out. Where a name states a change or a piece, a line headed by the entry shows the natural chain unless it says otherwise.
UniProt P41145: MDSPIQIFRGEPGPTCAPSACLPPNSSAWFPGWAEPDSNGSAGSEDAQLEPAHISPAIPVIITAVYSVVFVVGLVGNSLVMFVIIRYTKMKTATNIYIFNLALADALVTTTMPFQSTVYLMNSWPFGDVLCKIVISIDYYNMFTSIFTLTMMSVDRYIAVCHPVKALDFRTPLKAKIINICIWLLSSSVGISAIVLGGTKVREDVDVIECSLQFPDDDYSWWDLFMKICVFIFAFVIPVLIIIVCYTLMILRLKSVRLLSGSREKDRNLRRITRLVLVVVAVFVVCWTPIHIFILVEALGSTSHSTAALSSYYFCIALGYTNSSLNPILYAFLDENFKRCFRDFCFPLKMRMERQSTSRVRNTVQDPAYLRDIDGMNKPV
UniProt P33535, whole entry, looked up: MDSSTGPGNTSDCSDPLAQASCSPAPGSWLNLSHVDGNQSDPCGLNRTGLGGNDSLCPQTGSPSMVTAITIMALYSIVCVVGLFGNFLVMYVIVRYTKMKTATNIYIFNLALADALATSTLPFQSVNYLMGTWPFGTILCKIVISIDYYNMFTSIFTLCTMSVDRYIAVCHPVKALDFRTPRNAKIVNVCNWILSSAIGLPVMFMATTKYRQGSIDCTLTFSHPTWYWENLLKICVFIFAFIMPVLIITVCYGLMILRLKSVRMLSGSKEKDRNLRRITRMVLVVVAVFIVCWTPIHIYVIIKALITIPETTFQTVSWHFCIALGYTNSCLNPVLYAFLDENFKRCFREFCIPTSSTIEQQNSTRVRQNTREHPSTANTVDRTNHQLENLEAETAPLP
UniProt P34975: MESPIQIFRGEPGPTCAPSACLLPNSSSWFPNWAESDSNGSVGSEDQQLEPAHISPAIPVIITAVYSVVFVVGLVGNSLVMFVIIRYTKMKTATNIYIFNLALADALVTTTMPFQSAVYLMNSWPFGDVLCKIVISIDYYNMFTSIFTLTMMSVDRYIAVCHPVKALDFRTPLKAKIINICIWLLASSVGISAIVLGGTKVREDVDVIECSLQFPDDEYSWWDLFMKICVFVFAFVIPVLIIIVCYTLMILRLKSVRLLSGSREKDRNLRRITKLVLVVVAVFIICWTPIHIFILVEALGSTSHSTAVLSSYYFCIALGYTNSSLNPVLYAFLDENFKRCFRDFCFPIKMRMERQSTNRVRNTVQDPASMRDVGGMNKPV

Q: With CN(C(=O)C1C(c2ccccc2)C1c1ccccc1)[C@H]1CCCC[C@@H]1N1CCCC1 (stereo partly drawn) as the compound, how does the EC50 [1] read?
A: Its EC50 is greater than 10000 nM.

Q: With COc1cccc(C2=C(c3ccccc3)C2C(=O)N(C)[C@H]2CCCC[C@@H]2N2CCCC2)c1 (stereo partly drawn) as the compound, how does the EC50 [1] read?
A: Its EC50 is 300 nM.

Q: For CN(C(=O)C1C(c2ccccc2)=C1c1cccc(Cl)c1)[C@H]1CCCC[C@@H]1N1CCCC1 (stereo partly drawn), which EC50 [1] is on record?
A: The EC50 was 141 nM.

Q: With CN(C(=O)C1(C(=O)O)C(c2ccccc2)=C1c1ccccc1)[C@H]1CCCC[C@@H]1N1CCCC1 as the compound, how does the EC50 [1] read?
A: Its EC50 is greater than 10000 nM.

Q: With CN(C(=O)CC(c1ccccc1)c1ccccc1)[C@H]1CCCC[C@@H]1N1CCCC1 as the compound, how does the EC50 [1] read?
A: Its EC50 is greater than 10000 nM.

Q: Which EC50 [1] does the source give for CN(C(=O)C(c1ccccc1)c1ccccc1)[C@H]1CCCC[C@@H]1N1CCCC1 here?
A: Its EC50 is greater than 10000 nM.

Q: Which logD [2] does the source give for CN(C(=O)C1C(c2ccccc2)=C1c1ccccc1)[C@H]1CC[C@@]2(CCCO2)C[C@@H]1N1CCCC1 here?
A: Its logD is 2.37.

Q: What about the logP [3] of the same compound?
A: The logP was 4.39.

Q: And the ED50 (Mus musculus [4])?
A: Its ED50 is 0.19 mg/kg and 0.2 mg/kg.

Q: What about the Ki (Mu-type opioid receptor) of the same compound?
A: The Ki was greater than 1000 nM.

Q: What about the Ki [5] of the same compound?
A: The Ki was 0.64 nM.

Q: What about the EC50 [1] of the same compound?
A: The EC50 was 9.6 nM.

Q: What about the ED50 (Mus musculus [6]) of the same compound?
A: The ED50 was 0.6 mg/kg.

Q: Which EC50 [1] does the source give for COC(=O)C1(C(=O)N(C)[C@H]2CCCC[C@@H]2N2CCCC2)C(c2ccccc2)=C1c1ccccc1 here?
A: The EC50 was 3000 nM.

Q: Which EC50 [1] does the source give for CN(C(=O)C1C(c2ccccc2)=C1c1ccccc1)[C@H]1CCCC[C@@H]1N1CCCC1 here?
A: The EC50 was 32 nM.

Q: With CN(C(=O)C1C(c2ccccc2)=C1c1ccc(Cl)cc1)[C@H]1CCCC[C@@H]1N1CCCC1 (stereo partly drawn) as the compound, how does the EC50 [1] read?
A: The EC50 was greater than 10000 nM.

Q: Which logD [2] does the source give for CN(C(=O)Cc1cccc2occc12)[C@H]1CC[C@@]2(CCCO2)C[C@@H]1N1CCCC1 here?
A: Its logD is 1.55.

Q: What about the logP [3] of the same compound?
A: Its logP is 3.13.

Q: What about the Ki (Mu-type opioid receptor) of the same compound?
A: Its Ki is 87.4 nM.

Q: What about the Ki [5] of the same compound?
A: The Ki was 0.1 nM.

Q: And the EC50 [1]?
A: Its EC50 is 3.3 nM.

Q: And the ED50 (Mus musculus [6])?
A: The ED50 was 0.13 mg/kg.

Q: Which EC50 [1] does the source give for CN(C(=O)C1CC1(c1ccccc1)c1ccccc1)[C@H]1CCCC[C@@H]1N1CCCC1 (stereo partly drawn) here?
A: The EC50 was greater than 10000 nM.
